Among the data in PubChem BioAssay AID465 (The Scripps Research Institute Molecular Screening Center, 2006) are inhibition values, retold here.

The entries are a selection whose mix differs from that of the whole data set. Calls of active or inactive are those of the source.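 How the source made its calls: active means inhibition above the mean of all tested compounds plus 3 SD (cut at about 40% in these data); inactive means the rest.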

As usually defined, the inhibition is the drop in the measured response relative to a control, in per cent.

This test in a line: inhibitors of PMA/ionomycin-induced NF-kB reporter, primary screen, antigen receptor NF-kB inhibitor project, cell-based, HEK-293 luciferase reporter, luminescence (AID 465).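 Further: 0% = stimulated DMSO wells and 100% = 10 µM reference inhibitor 5653914.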 As to conditions: HEK-293 NF-kB luciferase reporter, at 3 µM, active compounds read high. In short, it runs like this: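 Material: HEK-293 cells with stable firefly luciferase reporter driven by four HIV NF-kB elements / Also added: PMA plus ionomycin mix as NF-kB-activating stimulus / Compound dosing: 3 µM once, 0.30% DMSO / Times: 1 h pretreatment, 16 h stimulation, 37 °C / Signal: luminescence / Evaluation: per-plate % inhibition versus controls / Benchmarks: DMSO and 10 µM reference inhibitor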
As to `COc1ccc(NC2CCN(CCc3ccccc3)CC2)c(OC)c1`, the inhibition was inactive: 6.9%. Then `O=C(OC1CN2CCC1CC2)C1c2ccccc2Oc2ccccc21` (configuration not stated), with inactive: 21.3%; and `N#CC1(Nc2ccccc2)CCN(CCc2ccccc2)CC1`, with inactive: 8.6%. `N/C(=N\O)c1c(N)no[n+]1[O-]`: the inhibition was inactive: 2.9%. With `CCOc1ncccc1C(=O)NCC1(N2CCOCC2)CCCCC1`, the inhibition was inactive: 8.7%. The same measure for `CCC(CO)(C(=O)OC1CN2CCC1CC2)c1ccccc1` (configuration not stated): inactive: 3.6%; for `Fc1ccccc1NC1CCN(Cc2ccccc2)CC1`: inactive: -3.1%.
